Reference: US20250195530A1, “POLQ INHIBITORS” (ASTRAZENECA AB, priority 2022, published 2025)

Sequences of proteins named here, by UniProt entry; tags and fusion partners are left off. Residues count along the entry.
UniProt O75417, 1780-2590: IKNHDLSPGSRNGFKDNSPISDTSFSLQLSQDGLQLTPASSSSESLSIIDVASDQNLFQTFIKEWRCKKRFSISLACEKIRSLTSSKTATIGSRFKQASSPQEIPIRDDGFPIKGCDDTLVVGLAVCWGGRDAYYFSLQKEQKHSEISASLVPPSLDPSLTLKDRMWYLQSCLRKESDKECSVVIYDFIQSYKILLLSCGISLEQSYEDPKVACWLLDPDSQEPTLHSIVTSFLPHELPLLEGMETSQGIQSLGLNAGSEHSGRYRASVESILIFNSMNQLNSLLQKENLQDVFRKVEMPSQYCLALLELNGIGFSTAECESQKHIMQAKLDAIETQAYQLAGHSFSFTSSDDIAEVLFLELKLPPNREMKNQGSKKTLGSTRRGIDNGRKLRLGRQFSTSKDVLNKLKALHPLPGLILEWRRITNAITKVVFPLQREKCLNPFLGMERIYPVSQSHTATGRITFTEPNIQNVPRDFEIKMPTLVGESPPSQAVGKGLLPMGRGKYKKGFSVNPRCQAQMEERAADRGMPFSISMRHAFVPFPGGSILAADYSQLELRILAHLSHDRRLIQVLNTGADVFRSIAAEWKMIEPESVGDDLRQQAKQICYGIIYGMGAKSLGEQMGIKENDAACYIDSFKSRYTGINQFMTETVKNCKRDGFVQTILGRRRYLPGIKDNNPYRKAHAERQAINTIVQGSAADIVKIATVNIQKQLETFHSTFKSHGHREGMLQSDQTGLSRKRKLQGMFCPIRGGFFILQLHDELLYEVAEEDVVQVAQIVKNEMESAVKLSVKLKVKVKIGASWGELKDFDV

Biological target: isolated polymerase domain (I1780-V2590) of DNA polymerase theta (Polθ) (Homo sapiens (Human), UniProt O75417)

SMILES	IC50 [nM]
COc1cccc(Cn2c(-c3ccc(OCCN4CCNCC4)cc3Cl)nc3c(OC4(C)CC4)ncnc32)n1 [Example K10, 8-(2-chloro-4-(2-(piperazin-1-yl)ethoxy)phenyl)-9-((6-methoxypyridin-2-yl)methyl)-6-(1-methylcyclopropoxy)-9H-purine]	7.94
Cc1c(-c2nc3c(OC4(C)CC4)ncnc3n2Cc2ccccc2)ccnc1OCCN1CCNCC1 [Example G14, 9-benzyl-8-(3-methyl-2-(2-(piperazin-1-yl)ethoxy)pyridin-4-yl)-6-(1-methylcyclopropoxy)-9H-purine]	2.51
CN1CCN(CCOc2ccc(-c3nc4c(OC5(C)CC5)ncnc4n3Cc3ccccc3)c(F)c2F)CC1 [Example H5, 9-benzyl-8-(2,3-difluoro-4-(2-(4-methylpiperazin-1-yl)ethoxy)phenyl)-6-(1-methylcyclopropoxy)-9H-purine]	2.51
Cc1cc(N2CCC(N)CC2)ncc1-c1nc2c(OC3(C)CC3)ncnc2n1Cc1ccccc1 [Example F1, 1-(5-(9-benzyl-6-(1-methylcyclopropoxy)-9H-purin-8-yl)-4-methylpyridin-2-yl)piperidin-4-amine]	3.98
Cc1ccnc(Cn2c(-c3ccc(OC[C@H](C)O)cc3Cl)nc3c(OC4(C)CC4)ncnc32)c1 [Example 36, (S)-1-(3-Chloro-4-(6-(1-methylcyclopropoxy)-9-((4-methylpyridin-2-yl)methyl)-9H-purin-8-yl)phenoxy)propan-2-ol]	6.31
CC1(Oc2ncnc3c2nc(-c2ccc(OCCN4CCNCC4)c(Cl)c2Cl)n3Cc2ccccc2)CC1 [Example J1, 9-benzyl-8-(2,3-dichloro-4-(2-(piperazin-1-yl)ethoxy)phenyl)-6-(1-methylcyclopropoxy)-9H-purine]	6.31
COc1ccc(-c2nc3cc(OC(C)C)ccc3n2Cc2ccccc2)c(Cl)c1 [Example A12, 1-benzyl-2-(2-chloro-4-methoxyphenyl)-5-isopropoxy-1H-benzo[d]imidazole]	3.98
Cc1cc(OCCN)ncc1-c1nc2c(OC3(C)CC3)ncnc2n1Cc1ccccc1 [Example G8, 2-((5-(9-benzyl-6-(1-methylcyclopropoxy)-9H-purin-8-yl)-4-methylpyridin-2-yl)oxy)ethan-1-amine]	2.51
CC1(Oc2ncnc3c2nc(-c2ccc(OCCN4CCNCC4)cc2Cl)n3Cc2ccccc2)CC1 [Example 6, 9-Benzyl-8-(2-chloro-4-(2-(piperazin-1-yl)ethoxy)phenyl)-6-(1-methylcyclopropoxy)-9H-purine]	3.16
CC(=O)N1CCN(CCOc2cccc(-c3nc4c(OC5(C)CC5)ncnc4n3Cc3ccccc3)c2Cl)CC1 [Example D8, 1-(4-(2-(3-(9-benzyl-6-(1-methylcyclopropoxy)-9H-purin-8-yl)-2-chlorophenoxy)ethyl)piperazin-1-yl)ethan-1-one]	2
CC1(Oc2ncnc3c2nc(-c2ccc(OCCN4CCNCC4)cc2Cl)n3Cc2ccccn2)CCC1 [Example J7, 8-(2-chloro-4-(2-(piperazin-1-yl)ethoxy)phenyl)-6-(1-methylcyclobutoxy)-9-(pyridin-2-ylmethyl)-9H-purine]	5.01
CC1(Oc2ncnc3c2nc(-c2ccc(OCCCN4CCNCC4)cc2Cl)n3Cc2ccccc2)CC1 [Example D18, 9-benzyl-8-(2-chloro-4-(3-(piperazin-1-yl)propoxy)phenyl)-6-(1-methylcyclopropoxy)-9H-purine]	2.51
CN1CCN(CCOc2ccc(-c3nc4c(OC5(C)CC5)ncnc4n3Cc3ccccc3)c(C#N)c2)CC1 [Example H8, 2-(9-benzyl-6-(1-methylcyclopropoxy)-9H-purin-8-yl)-5-(2-(4-methylpiperazin-1-yl)ethoxy)benzonitrile]	3.98
Cc1cc(OCCCN(C)C)ncc1-c1nc2c(OC3(C)CC3)ncnc2n1Cc1ccccc1 [Example G2, 3-((5-(9-benzyl-6-(1-methylcyclopropoxy)-9H-purin-8-yl)-4-methylpyridin-2-yl)oxy)-N,N-dimethylpropan-1-amine]	3.16
CC1(Oc2ncnc3c2nc(-c2ccc(OCCN4CC5(CC(O)C5)C4)cc2Cl)n3Cc2ccccc2)CC1 [Example H16, 2-(2-(4-(9-benzyl-6-(1-methylcyclopropoxy)-9H-purin-8-yl)-3-chlorophenoxy)ethyl)-2-azaspiro[3.3]heptan-6-ol]	2.51
CC1(Oc2nccc3c2nc(-c2ccc(OCCN4CCNCC4)cc2Cl)n3Cc2cc(Cl)ccn2)CC1 [Example 16, 2-(2-chloro-4-(2-(piperazin-1-yl)ethoxy)phenyl)-1-((4-chloropyridin-2-yl)methyl)-4-(1-methylcyclopropoxy)-1H-imidazo[4,5-c]pyridine]	2.51
CN1CCN(CCOc2ccc(-c3nc4c(OC5(C)CC5)ncnc4n3Cc3ccccn3)c(Cl)c2)CC1 [Example E5, 8-(2-chloro-4-(2-(4-methylpiperazin-1-yl)ethoxy)phenyl)-6-(1-methylcyclopropoxy)-9-(pyridin-2-ylmethyl)-9H-purine]	3.98
CN1CCN(CCOc2ccc(-c3nc4c(OC5(C)CC5)ncnc4n3Cc3ccccc3)c(F)c2)CC1 [Example H2, 9-benzyl-8-(2-fluoro-4-(2-(4-methylpiperazin-1-yl)ethoxy)phenyl)-6-(1-methylcyclopropoxy)-9H-purine]	2
CC1(Oc2ncnc3c2nc(-c2ccc(OCCN4CCNCC4)cc2Cl)n3Cc2nccs2)CC1 [Example K4, 2-((8-(2-chloro-4-(2-(piperazin-1-yl)ethoxy)phenyl)-6-(1-methylcyclopropoxy)-9H-purin-9-yl)methyl)thiazole]	6.31
C#Cc1cc(OCCN2CCN(C)CC2)ccc1-c1nc2c(OC3(C)CC3)ncnc2n1Cc1ccccc1 [Example H9, 9-benzyl-8-(2-ethynyl-4-(2-(4-methylpiperazin-1-yl)ethoxy)phenyl)-6-(1-methylcyclopropoxy)-9H-purine]	3.98
Cc1ccc(Cn2c(-c3ccc(OCCN4CCNCC4)cc3Cl)nc3c(OC4(C)CC4)ncnc32)nc1 [Example L8, 8-(2-chloro-4-(2-(piperazin-1-yl)ethoxy)phenyl)-6-(1-methylcyclopropoxy)-9-((5-methylpyridin-2-yl)methyl)-9H-purine]	6.31

More lines, now with the values ahead:

IC50 [nM]	SMILES
3.98	CC1(Oc2ncnc3c2nc(-c2cccc(O[C@H]4CC[C@@H](C(=O)O)CC4)c2Cl)n3Cc2cccc(Cl)c2)CC1 [Example T543, (1s,4s)-4-(2-chloro-3-(9-(3-chlorobenzyl)-6-(1-methylcyclopropoxy)-9H-purin-8-yl)phenoxy)cyclohexane-1-carboxylic acid]
2.51	CC1(Oc2ncnc3c2nc(-c2ccc(OCCN4CCNCC45CC5)cc2Cl)n3Cc2ccccc2)CC1 [Example R22, 8-(4-(2-(4,7-diazaspiro[2.5]octan-4-yl)ethoxy)-2-chlorophenyl)-9-benzyl-6-(1-methylcyclopropoxy)-9H-purine]
5.01	CC1(Oc2ncnc3c2nc(-c2ccc(OCCCN4CCNC(=O)C4)cc2Cl)n3Cc2ccccc2)CC1 [Example S2, 4-(3-(4-(9-benzyl-6-(1-methylcyclopropoxy)-9H-purin-8-yl)-3-chlorophenoxy)propyl)piperazin-2-one]
2.51	CC1(Oc2ncnc3c2nc(-c2ccc(OCCN4CC5(CC(O)C5)C4)cc2Cl)n3Cc2cc(Cl)ccn2)CC1 [Example R1, 2-(2-(3-chloro-4-(9-((4-chloropyridin-2-yl)methyl)-6-(1-methylcyclopropoxy)-9H-purin-8-yl)phenoxy)ethyl)-2-azaspiro[3.3]heptan-6-ol]
3.16	C[C@@H]1CN(CCOc2ccc(-c3nc4c(OC5(C)CC5)ncnc4n3Cc3ccccc3)c(Cl)c2)C[C@H](C)N1 [Example R9, (cis)-9-benzyl-8-(2-chloro-4-(2-(3,5-dimethylpiperazin-1-yl)ethoxy)phenyl)-6-(1-methylcyclopropoxy)-9H-purine]
10	CC1(Oc2ncnc3c2nc(-c2ccc(O[C@H]4CC[C@H](C(=O)O)CC4)cc2Cl)n3Cc2cc(Cl)ccc2F)CC1 [Example U49, (1r,4r)-4-(3-chloro-4-(9-(5-chloro-2-fluorobenzyl)-6-(1-methylcyclopropoxy)-9H-purin-8-yl)phenoxy)cyclohexane-1-carboxylic acid]
3.16	CC1(Oc2ncnc3c2nc(-c2ccc(C(N)=O)cc2Cl)n3Cc2ccccc2)CC1 [Example N4, 4-(9-benzyl-6-(1-methylcyclopropoxy)-9H-purin-8-yl)-3-chlorobenzamide]
3.98	CC1(Oc2ncnc3c2nc(-c2ccc(O[C@H]4CC[C@H](C(=O)O)CC4)cc2Cl)n3Cc2cccc(Cl)c2)CC1 [Example T540, (1r,4r)-4-(3-chloro-4-(9-(3-chlorobenzyl)-6-(1-methylcyclopropoxy)-9H-purin-8-yl)phenoxy)cyclohexane-1-carboxylic acid]
3.98	CC1(Oc2ncnc3c2nc(-c2cccc(O[C@H]4CC[C@H](C(=O)O)CC4)c2Cl)n3Cc2cc(Cl)ccc2C#N)CC1 [Example U85, (1r,4r)-4-(2-chloro-3-(9-(5-chloro-2-cyanobenzyl)-6-(1-methylcyclopropoxy)-9H-purin-8-yl)phenoxy)cyclohexane-1-carboxylic acid]
12.6	CC1(Oc2ncnc3c2nc(-c2ccc(OC[C@H]4C[C@H](C(=O)O)C4)cc2Cl)n3Cc2ccccc2C#N)CC1 [Example U27, (1r,3r)-3-((3-chloro-4-(9-(2-cyanobenzyl)-6-(1-methylcyclopropoxy)-9H-purin-8-yl)phenoxy)methyl)cyclobutane-1-carboxylic acid]
6.31	CC1(Oc2ncnc3c2nc(-c2ccc(CN4CCNCC4)cc2Cl)n3Cc2ccccc2)CC1 [Example N6, 9-benzyl-8-(2-chloro-4-(piperazin-1-ylmethyl)phenyl)-6-(1-methylcyclopropoxy)-9H-purine]
7.94	CC1(Oc2ncnc3c2nc(-c2ccc(OC[C@H]4C[C@H](C(=O)O)C4)cc2Cl)n3Cc2cccc(Cl)c2)CC1 [Example T410, (1r,3r)-3-((3-chloro-4-(9-(3-chlorobenzyl)-6-(1-methylcyclopropoxy)-9H-purin-8-yl)phenoxy)methyl)cyclobutane-1-carboxylic acid]
